This is an account of results in ChEMBL document CHEMBL1126828, “Structure-activity relationships of trans-3,4-dimethyl-4-(3-hydroxyphenyl)piperidine antagonists for mu- and kappa-opioid receptors” (J Med Chem, 1993).

The chains behind the UniProt entries cited, without tags or fusion partners. Where a name states a change or a piece, a line headed by the entry shows the natural chain unless it says otherwise.
UniProt P41144: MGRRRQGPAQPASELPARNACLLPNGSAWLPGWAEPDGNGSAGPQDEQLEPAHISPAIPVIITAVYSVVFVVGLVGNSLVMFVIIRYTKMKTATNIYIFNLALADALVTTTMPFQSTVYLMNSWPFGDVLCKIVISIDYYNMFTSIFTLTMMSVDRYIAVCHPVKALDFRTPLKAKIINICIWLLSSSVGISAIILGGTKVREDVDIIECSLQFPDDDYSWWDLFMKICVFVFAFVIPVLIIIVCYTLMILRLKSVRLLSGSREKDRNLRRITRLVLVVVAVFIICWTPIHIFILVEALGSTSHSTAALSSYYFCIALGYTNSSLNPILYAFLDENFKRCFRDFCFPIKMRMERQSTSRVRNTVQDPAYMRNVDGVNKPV

The target in this test is Kappa-type opioid receptor (Cavia porcellus, UniProt P41144). As to the kind of experiment: Binding affinity towards kappa-opioid receptor by displacement of [3H]-EKC at from guinea pig cortical tissue.

Molecules are shown by their SMILES. pKi: −log10 of the molar value.

`CCCCCCN1CC[C@@](C)(c2cccc(O)c2)[C@@H](C)C1` showed a pKi of 8.02.

For orientation: pKi means −log10 of the Ki, conventionally taken in molar units.
